Literature values in article PMC10534581, “Therapeutic Drug Monitoring in Children and Adolescents: Findings on Fluoxetine from the TDM-VIGIL Trial” (Pharmaceutics, 2023).

Test system: serotonin transporters (5-HTT)
Parameters: method as in PMID 15121647
Details: achieved on average at a dose of 20 mg, adults; cited from earlier work

CNCCC(Oc1ccc(C(F)(F)F)cc1)c1ccccc1 (stereo not shown) [FLX, Fluoxetine]
occupancy of serotonin transporters (5-HTT): 80%
